# Literature values, collected in patent US11612576B2 (Thiogenesis Therapeutics, Inc., priority 2017, dated 2023).
# Test system: Plasmodium berghei ANKA strain
# Settings: mice infected with Plasmodium berghei ANKA strain; cited from earlier work
structure (smiles),measurement,value
CC(C)(CO)[C@@H](O)C(=O)NCCC(=O)NCCSSCCNC(=O)CCNC(=O)[C@H](O)C(C)(C)CO [pantethine],cerebral syndrome in infected mice,prevents the cerebral syndrome
